Assay results published in PubChem BioAssay AID652257 (The Scripps Research Institute Molecular Screening Center, 2013).
This is a selection; strong and weak results do not stand in their true shares. Activity calls are given as the source filed them.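 How the source made its calls: active means inhibition above about 21% made by adding two undisclosed values (limit read from the data); inactive means the rest.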

By UniProt entry, the sequences of proteins in these tests, tags left out.
UniProt Q99873, whole entry: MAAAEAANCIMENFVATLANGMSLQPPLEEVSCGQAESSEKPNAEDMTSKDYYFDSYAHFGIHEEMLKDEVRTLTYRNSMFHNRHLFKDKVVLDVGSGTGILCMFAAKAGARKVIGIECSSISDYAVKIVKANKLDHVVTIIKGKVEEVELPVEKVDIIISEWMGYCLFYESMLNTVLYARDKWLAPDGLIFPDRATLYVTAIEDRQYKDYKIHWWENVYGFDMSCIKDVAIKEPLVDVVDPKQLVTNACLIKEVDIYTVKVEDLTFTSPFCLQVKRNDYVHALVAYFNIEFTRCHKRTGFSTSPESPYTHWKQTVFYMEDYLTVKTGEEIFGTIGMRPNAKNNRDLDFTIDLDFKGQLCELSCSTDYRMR

target: Protein arginine N-methyltransferase 1 (Homo sapiens) (UniProt Q99873); assay: human PRMT1 activity-probe blockers – biochemical, fluorescence polarization, primary screen (AID 652257); conditions: recombinant PRMT1, activity-based probe fluorescence polarization; at 2.79 µM; hits give high values

Row | SMILES | inhibition
1 | CCC(=O)N(c1ccccc1)C1(COC)CCN(CCn2nnn(CC)c2=O)CC1 | inactive: 2.95%
2 | CCC(=O)N(c1ccccc1)C1(COC)CCN(CCc2cccs2)CC1 | inactive: -1.37%
